Data published in patent publication US20250319053A1 (Dana-Farber, published 2025).

Target: actin, endogenous in human PDAC2 cells (human, UniProt P60709 2-375)
Experiment: IP with Flag antibody from PDAC2 cells stably expressing Flag-HIP1R S929A, immunoblot

B1: Flag-HIP1R S929A mutant (human HIP1R with C-terminal DYK tag), stably expressed in PDAC2 cells (other)
chain: MNSIKNVPARVLSRRPGHSLEAEREQFDKTQAISISKAINTQEAPVKEKHARRIILGTHHEKGAFTFWSYAIGLPLPSSSILSWKFCHVLHKVLRDGHPNVLHDCQRYRSNIREIGDLWGHLHDRYGQLVNVYTKLLLTKISFHLKHPQFPAGLEVTDEVLEKAAGTDVNNIFQLTVEMFDYMDCELKLSESVFRQLNTAIAVSQMSSGQCRLAPLIQVIQDCSHLYHYTVKLLFKLHSCLPADTLQGHRDRFHEQFHSLRNFFRRASDMLYFKRLIQIPRLPEGPPNFLRASALAEHIKPVVVIPEEAPEDEEPENLIEISTGPPAGEPVVVADLFDQTFGPPNGSVKDDRDLQIESLKREVEMLRSELEKIKLEAQRYIAQLKSQVNALEGELEEQRKQKQKALVDNEQLRHELAQLRAAQLEGERSQGLREEAERKASATEARYNKLKEKHSELVHVHAELLRKNADTAKQLTVTQQSQEEVARVKEQLAFQVEQVKRESELKLEEKSDQLEKLKRELEAKAGELARAQEALSHTEQSKSELSSRLDTLSAEKDALSGAVRQREADLLAAQSLVRETEAALSREQQRSSQEQGELQGRLAERESQEQGLRQRLLDEQFAVLRGAAAEAAGILQDAVSKLDDPLHLRCTSSPDYLVSRAQEALDAVSTLEEGHAQYLTSLADASALVAALTRFSHLAADTIINGGATSHLAPTDPADRLIDTCRECGARALELMGQLQDQQALRHMQASLVRTPLQGILQLGQELKPKSLDVRQEELGAVVDKEMAATSAAIEDAVRRIEDMMNQARHASSGVKLEVNERILNSCTDLMKAIRLLVTTSTSLQKEIVESGRGAATQQEFYAKNSRWTEGLISASKAVGWGATQLVEAADKVVLHTGKYEELIVCSHEIAASTAQLVAASKVKANKHAPHLSRLQECSRTVNERAANVVASTKSGQEQIEDRDTMDFSGLSLIKLKKQEMETQVRVLELEKTLEAERMRLGELRKQHYVLAGASGSPGEEVAIRPSTAPRSVTTKKPPLAQKPSVAPRQDHQLDKKDGIYPAQLVNY
notes: not shown: C-terminal DYK (Flag) tag from pcDNA3.1+/C-(K)-DYK
  binding result: no binding
